Experimental data reported in patent US5994323A, “Pharmaceutical compositions comprising clioquinol in combination with vitamin B12 and therapeutic and prophylactic uses thereof” (priority 1997, dated 1999).

Assays:
[1] = test system: Aβ; assay: Resolubilization of amyloid aggregates in Alzheimer's disease brain homogenates (Western blot of supernatants); type: biochemical, human; conditions: % of the final PBS/clioquinol extract (100%=800 nM clioquinol)
[2] = test system: zinc precipitated Aβ; assay: Chelating ability: washing of zinc-aggregated synthetic Aβ on nylon membrane, anti-Aβ 6E10 / ECL; type: biochemical; conditions: 10 ng synthetic Aβ aggregated with 25 μM ZnCl; wash with TBS containing 2 μM chelator; 100% for TBS alone
Experimental: Samples of 10 ng synthetic Aβ were placed in microtitre wells and caused to aggregate by the addition of 25 μM ZnCl. The aggregates were then transferred to a 0.2 μm nylon membrane by filtration. […] The membrane was fixed, probed with the anti Aβ monoclonal antibody 6E10 and developed for exposure to ECL-film. The transmittance of the ECL-film was measured and the relative signal strength calculated based on 100% for TBS alone.

In the case of `Oc1c(I)cc(Cl)c2cccnc12` [clioquinol, 5-chloro-7-iodo-8 hydroxyquinoline], the “Optimal concentration for solubilization of Aβ” value [1] is reported as 10% and the “Relative signal strength of Aβ remaining on membrane” value [2] is reported as 49%.
